## Antibody variant affinities, Ab-14 light chain, assay B

Target: peptide PDVDLGDISGINAS, taken from heptad repeat 2 (HR2) of SARS-CoV-2 spike.

Each scFv is VH, a (GGGGS)3 linker, VL, as in the parent Ab-14, and differs from it in the CDRs of the light chain only.
VH: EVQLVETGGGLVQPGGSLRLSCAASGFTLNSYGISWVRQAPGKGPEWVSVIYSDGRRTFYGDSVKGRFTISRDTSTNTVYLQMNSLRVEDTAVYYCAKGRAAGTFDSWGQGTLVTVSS
VL: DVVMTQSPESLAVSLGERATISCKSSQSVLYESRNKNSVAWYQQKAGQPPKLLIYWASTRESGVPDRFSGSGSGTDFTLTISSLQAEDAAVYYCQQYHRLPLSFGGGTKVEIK

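The variants were designed computationally from a first round of random CDR variants and then made and measured. Their group label is 14L_Ctrl (Ctrl: baseline library sampled from a position-specific scoring matrix, with some repeated check sequences). The assay is AlphaSeq: two haploid yeast populations carry antibody and antigen on their surface. The frequency of each diploid, read from paired DNA barcodes, reflects how well the two displayed proteins bind. A regression on co-assayed BCL2-family reference pairs converts the normalised counts of each replicate to an apparent Kd. Each pool was mated in six replicate cultures.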

The parent's light chain CDRs are KSSQSVLYESRNKNSVA, WASTRES, QQYHRLPLS; each variant's own CDRs replace them letter for letter.
Values are log10 of the apparent Kd in nM; lower means stronger binding.
The mean shown is taken over the replicates in which the pair was detected.
"ND" marks a missing value. The strain was present, yet no cells mated with the target were sequenced in that replicate, which points to weak or no binding.
Of ten entries with the parent sequence, four were seen in most replicates (averages 0.34 to 2.37), three in one and three in none, so single entries are noisy.

CDR-L1 | CDR-L2 | CDR-L3 | log10 Kd, replicates | log10 Kd (nM), mean | empty controls
KSSQSVPAESRNKNSVA | NASTRES | QQDHRLPLS | ND 2.40 2.28 ND 3.04 ND | 2.57 | 1/18 (2.99)
KSSQSVLYESANKNSVA | WASTREN | QQYHRLPLS | 1.70 2.40 0.96 1.64 1.61 1.50 | 1.63 | 0/18
KSSISVLYESNNKNSVA | WASTRES | QQYHRLPLS | 1.69 ND 1.89 1.43 0.41 1.06 | 1.30 | 0/18
KSSQSVLWESRNFNSVA | QASTRES | QQYHFLPLS | 2.12 ND 1.75 2.27 2.30 2.52 | 2.19 | 2/18 (2.07)
SSSSSVLYESRNKNSVA | SASTRES | QQYHRLPLL | 0.74 0.50 0.47 0.75 0.55 0.45 | 0.58 | 0/18
KLSNSVLYESRNKNSVA | WASTRES | QQYHDLPLS | 1.21 1.27 1.35 1.60 1.63 1.91 | 1.50 | 2/18 (3.23)
KFSSSVLYESRNKNSVA | GASTRES | QQYHRLPFS | 0.76 1.04 0.96 0.82 0.64 0.87 | 0.85 | 0/18
KSSSSVLYESRNKNSVA | GASTRES | QQMHRLPLS | 2.23 1.55 ND 1.90 0.99 ND | 1.67 | 0/18
KLSQSVLYESRNKNSVA | WASERES | QQYHRLPLS | -0.56 -0.19 0.27 0.67 0.07 -0.25 | 0.00 | 0/18
KQSQSVPYESRNENSVA | WASTRES | QQYHRLPLS | 1.78 1.55 1.23 1.73 2.02 1.88 | 1.70 | 0/18
KVSQSYLGESRNKNSVA | QASTRES | TQYHRLPLS | ND ND ND ND 2.54 ND | 2.54 | 1/18 (2.08)
KSSQTVEYESRNHNSVA | WTSTRES | QQYKRLPLS | ND ND 2.05 2.35 2.37 ND | 2.26 | 1/18 (3.74)
KNSASVLYESRNHNSVA | WASTRES | QQYHRLPLS | ND ND ND 2.94 1.64 ND | 2.29 | 0/18
DSSQSVLYYSRNKNSVA | WASTRES | QQYSRLPLS | ND ND ND ND ND ND | ND | 0/18
KSSQSVLYESRNKNSVA | WASARES | QQYYRLPLS | 1.27 1.26 ND ND ND 2.02 | 1.52 | 0/18
KSSQSGLYESRSKNSVA | WASTRES | QSYHRLPLS | ND 5.12 ND ND 2.48 2.29 | 3.30 | 1/18 (2.45)
KISQSVLYESRNKNSVA | WASTREA | QQYHRLPLS | 0.38 0.23 0.15 0.15 0.35 0.44 | 0.28 | 0/18
KISQSVLYESRNKNSVA | WASTRES | QMYHRLPLS | 1.14 2.36 0.86 1.07 2.37 1.40 | 1.53 | 0/18
KSSQSVAYESRNKNSVA | WASTRET | QQYHVLPLS | 1.28 1.63 2.11 1.35 2.41 1.49 | 1.71 | 0/18
KSSQSVLYESRNKNSVA | WASYRES | QQYHRLPLS | ND ND ND ND ND ND | ND | 0/18
KSSQSVLYESRKKNSVA | EASTRES | QQYHALPLS | 1.32 1.27 1.04 1.51 1.01 1.69 | 1.31 | 1/18 (2.57)
KSSQSVLYSSRNKNSVA | WASTRES | QQCHRLPLS | ND ND 1.08 ND 1.56 2.67 | 1.77 | 0/18
KSSQRVLYESRNKISVA | WASTRES | QQYHRLPLS | ND ND ND 3.25 1.00 ND | 2.12 | 1/18 (0.97)
KSSQSVLYESREKNSVA | WASTRES | QQYHRLPLT | 2.53 1.35 1.89 2.81 3.23 1.49 | 2.22 | 0/18
KFSQSVLYESRNKNQVA | YASMRES | QQYHRLLLS | ND ND ND ND ND ND | ND | 0/18
KSSQSVLYESRNKNSVA | HASKRES | QQYHRKPLS | ND ND ND ND ND ND | ND | 1/18 (4.06)
KSSQSVTYESRNANSVA | GASTRES | QQYGKLWLS | 1.11 2.04 0.95 0.88 1.75 1.00 | 1.29 | 1/18 (1.84)
KLYQSVGYMSTNKNSVA | HASTRES | QQYDRLPLS | 0.67 0.46 0.40 0.53 0.31 0.49 | 0.48 | 1/18 (2.38)
KSSQKVLYESRNKNSVA | WASTRES | QQYMRLPLS | ND 2.11 1.30 1.71 2.56 ND | 1.92 | 0/18
DSSQGVLYESRNKNSVA | DASTRES | QQTHRLPLS | 0.67 0.58 0.64 0.82 0.81 1.08 | 0.77 | 1/18 (3.37)
KFSQSVLYESRNKNSVA | HASTRVS | QQYSRLPLY | 0.23 0.44 0.12 0.18 0.39 0.36 | 0.28 | 1/18 (2.32)
ASSQSVLAESCNKNSVA | QASTRES | QQYHRLPLS | 0.64 0.87 0.79 0.65 0.67 0.85 | 0.75 | 2/18 (3.10)
KSNISVLYESRNKNSVA | HASTRES | QQYRRLPLS | 1.87 1.76 1.81 2.61 2.50 2.11 | 2.11 | 2/18 (2.94)
KSSQSILYEMRNKNSVA | DASTRES | QQYHRLPLS | 0.43 0.33 0.02 0.04 0.19 0.56 | 0.26 | 1/18 (2.05)
HSSQSVLYESRNKNSVA | WASTRES | QQYHRLPLS | ND ND 2.80 ND 2.65 ND | 2.72 | 1/18 (2.32)
KSSQSVSYESRDKNSVA | WASTRES | CQYHHLPLS | ND ND ND ND ND ND | ND | 0/18
KLSQAVLYESRLKNSVA | WASTRES | QQYSRLPLS | 0.51 0.61 0.15 0.73 0.14 0.72 | 0.48 | 1/18 (2.08)
KSSDSVLYESRNKNSVA | WASERES | QQYHYLHLS | ND ND ND ND ND ND | ND | 0/18
KSSQSVLYESRNKNSIA | WASMRIS | AQYHRLPLS | ND ND ND ND ND ND | ND | 1/18 (2.91)
KSSQSVLYESRNSNNVA | WASTRES | QQCHRLPLS | ND ND ND ND ND ND | ND | 0/18
KSSQGTGYESRNKNSVA | WASTRES | QQYHRTPLS | ND ND ND ND ND ND | ND | 0/18
KSSQDVNYDSRNKNSVA | WRLTRER | QQYHELPLS | ND ND ND ND ND ND | ND | 0/18
KSSQSVLYPSRNKNSVA | YAQTRES | QQYHRLPLS | ND ND ND ND ND ND | ND | 0/18
KISESVLYESRNKNSVA | WASTRES | QQYHRLQLS | ND ND ND ND ND ND | ND | 0/18
KSSQSVLYESRNKNSVA | AASTRES | QQYHKGPLS | ND ND ND ND ND ND | ND | 0/18
KWSQSVLYNYRNKNSLA | GASTRES | QQYHRLPLS | 0.63 0.70 0.35 0.33 0.31 0.88 | 0.53 | 1/18 (3.26)
KSSQSVLYTSRNKNSVA | GASTRES | QQYHRLPLY | 0.99 1.32 1.18 1.27 1.00 1.16 | 1.15 | 0/18
KSSQSVRYESRNKNSVA | WASTRES | QQYHRLPLS | ND ND ND ND ND ND | ND | 0/18
KSSQWVQYESRNKNSVA | HASTRES | QSYHELPLS | 1.21 0.44 0.62 0.72 0.24 0.58 | 0.64 | 0/18
KSSQSVLDESRNKNSVA | WASTRES | QRYHRLPLS | ND ND ND ND ND 2.97 | 2.97 | 0/18

Extract of 7 entries:

| CDR-L1 | CDR-L2 | CDR-L3 | log10 Kd, replicates | log10 Kd (nM), mean | empty controls |
|---|---|---|---|---|---|
| HSSQSVLYESRNKNSVA | WASTRES | QQYHRLPLS | ND ND 2.80 ND 2.65 ND | 2.72 | 1/18 (2.32) |
| KSSQSVLYESRNKNSVA | AASTRES | QQYHKGPLS | ND ND ND ND ND ND | ND | 0/18 |
| KLSQAVLYESRLKNSVA | WASTRES | QQYSRLPLS | 0.51 0.61 0.15 0.73 0.14 0.72 | 0.48 | 1/18 (2.08) |
| KISESVLYESRNKNSVA | WASTRES | QQYHRLQLS | ND ND ND ND ND ND | ND | 0/18 |
| KSSQSVLYSSRNKNSVA | WASTRES | QQCHRLPLS | ND ND 1.08 ND 1.56 2.67 | 1.77 | 0/18 |
| KFSSSVLYESRNKNSVA | GASTRES | QQYHRLPFS | 0.76 1.04 0.96 0.82 0.64 0.87 | 0.85 | 0/18 |
| KSSQSVPAESRNKNSVA | NASTRES | QQDHRLPLS | ND 2.40 2.28 ND 3.04 ND | 2.57 | 1/18 (2.99) |

A sequence measured in both rounds can read differently, since the two assays cover different ranges.
The authors averaged sequences with at least three values out of six and counted those with two or fewer as poor binders.
As a blank, each scFv also met three strains without target: over all light chain designs, 4% of these pairings were detected, typically at 2.64 and seldom below 1.59. For each scFv, signals with the empty controls are counted beside the result, with their mean in brackets.

From the AlphaSeq antibody data of Li et al. 2023 (doi:10.1038/s41467-023-39022-2), copy in the FLAb collection.